Values quoted from earlier work as cited in US20060229344A1, “Method of treating amyotrophic lateral sclerosis” (priority 2005, published 2006).

Tested on: amyotrophic lateral sclerosis
Details: ALS patients; Rowland, New Engl. J. Med. 2001

Nc1nc2ccc(OC(F)(F)F)cc2s1 [RILUZOLE, 2-amino-6-(trifluoromethoxy) benzothiazole]
effect on survival time in ALS: borderline significance
